In the supplement of paper PMC11997997:
“And” between values parts separate entries of the source, which are not always exact repeats. Equal values may be shown once.

System: Mycobacterium tuberculosis CDC1551 (intracellular, in murine BMDM)
Assay: area under intracellular growth-inhibition dose-response curve (AUC (% inhibition x dose, relative)); higher = more potent
Conditions: duration: 6 days; dose range: 0.13-80 uM, 8 points
Description: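 Primary murine bone marrow-derived macrophages in 384-well plates were infected with luciferase-expressing M. tuberculosis CDC1551 (MOI 1, 1 h), then treated with an 8-point 2.5-fold dose response (80 to 0.13 uM) for 6 days. Intracellular growth was read by luciferase and normalised to rifampicin and to the lowest-dose wells. The AUC of the % inhibition dose-response was computed in Prism.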

SMILES | area under intracellular growth-inhibition dose-response curve
CCOc1ccc(NC(=S)Nc2ccc(OCC)cc2)cc1 | 274
CCc1cc(C(N)=S)ccn1 | 257 and 153
C[CH2][Hg][S]c1ccccc1C(=O)[O-].[Na+] | 186
CN(C/C=C/c1ccccc1)Cc1cccc2ccccc12.Cl | 40.6
Clc1cc2cccnc2c2ncccc12 | 239
